SMILES strings stand for the structures.

By UniProt entry, the sequences of proteins in these tests, tags left out. Chains listed by the source or under a name are the forms on record and can include a tag or linker.
UniProt P00533, with tags, fused parts or gaps DUP767-769: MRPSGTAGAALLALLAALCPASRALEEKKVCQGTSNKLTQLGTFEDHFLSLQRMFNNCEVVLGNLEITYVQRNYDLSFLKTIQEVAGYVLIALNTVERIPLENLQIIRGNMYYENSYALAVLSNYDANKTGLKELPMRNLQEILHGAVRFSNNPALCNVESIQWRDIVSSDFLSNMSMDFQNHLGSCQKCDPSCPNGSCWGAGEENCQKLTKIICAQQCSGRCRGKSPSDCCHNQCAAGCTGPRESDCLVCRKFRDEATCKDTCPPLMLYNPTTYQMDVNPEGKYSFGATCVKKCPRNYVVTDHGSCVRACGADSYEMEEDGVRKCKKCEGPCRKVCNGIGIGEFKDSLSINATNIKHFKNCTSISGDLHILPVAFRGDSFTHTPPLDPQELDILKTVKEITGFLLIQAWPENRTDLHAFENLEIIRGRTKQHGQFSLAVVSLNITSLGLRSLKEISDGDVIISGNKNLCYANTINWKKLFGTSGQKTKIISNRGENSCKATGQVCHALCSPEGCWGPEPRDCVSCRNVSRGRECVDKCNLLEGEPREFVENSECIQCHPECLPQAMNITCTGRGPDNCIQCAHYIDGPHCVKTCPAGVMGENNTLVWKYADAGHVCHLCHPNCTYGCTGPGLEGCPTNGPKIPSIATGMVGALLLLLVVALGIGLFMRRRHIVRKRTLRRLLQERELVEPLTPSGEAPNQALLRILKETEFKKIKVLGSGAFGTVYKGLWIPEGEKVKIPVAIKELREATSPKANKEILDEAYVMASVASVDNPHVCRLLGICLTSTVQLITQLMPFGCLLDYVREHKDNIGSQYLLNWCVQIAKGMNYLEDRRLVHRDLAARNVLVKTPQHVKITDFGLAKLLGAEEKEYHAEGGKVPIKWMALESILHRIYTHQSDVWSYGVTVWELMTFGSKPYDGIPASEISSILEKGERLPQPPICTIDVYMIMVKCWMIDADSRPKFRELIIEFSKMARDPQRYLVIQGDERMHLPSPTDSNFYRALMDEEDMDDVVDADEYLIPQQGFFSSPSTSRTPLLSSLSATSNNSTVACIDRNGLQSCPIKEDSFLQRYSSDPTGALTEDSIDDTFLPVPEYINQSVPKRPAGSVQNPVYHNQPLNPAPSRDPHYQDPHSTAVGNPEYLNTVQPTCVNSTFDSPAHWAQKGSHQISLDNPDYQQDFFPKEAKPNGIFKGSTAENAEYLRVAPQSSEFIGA
UniProt P00533, with tags, fused parts or gaps DUP768-770: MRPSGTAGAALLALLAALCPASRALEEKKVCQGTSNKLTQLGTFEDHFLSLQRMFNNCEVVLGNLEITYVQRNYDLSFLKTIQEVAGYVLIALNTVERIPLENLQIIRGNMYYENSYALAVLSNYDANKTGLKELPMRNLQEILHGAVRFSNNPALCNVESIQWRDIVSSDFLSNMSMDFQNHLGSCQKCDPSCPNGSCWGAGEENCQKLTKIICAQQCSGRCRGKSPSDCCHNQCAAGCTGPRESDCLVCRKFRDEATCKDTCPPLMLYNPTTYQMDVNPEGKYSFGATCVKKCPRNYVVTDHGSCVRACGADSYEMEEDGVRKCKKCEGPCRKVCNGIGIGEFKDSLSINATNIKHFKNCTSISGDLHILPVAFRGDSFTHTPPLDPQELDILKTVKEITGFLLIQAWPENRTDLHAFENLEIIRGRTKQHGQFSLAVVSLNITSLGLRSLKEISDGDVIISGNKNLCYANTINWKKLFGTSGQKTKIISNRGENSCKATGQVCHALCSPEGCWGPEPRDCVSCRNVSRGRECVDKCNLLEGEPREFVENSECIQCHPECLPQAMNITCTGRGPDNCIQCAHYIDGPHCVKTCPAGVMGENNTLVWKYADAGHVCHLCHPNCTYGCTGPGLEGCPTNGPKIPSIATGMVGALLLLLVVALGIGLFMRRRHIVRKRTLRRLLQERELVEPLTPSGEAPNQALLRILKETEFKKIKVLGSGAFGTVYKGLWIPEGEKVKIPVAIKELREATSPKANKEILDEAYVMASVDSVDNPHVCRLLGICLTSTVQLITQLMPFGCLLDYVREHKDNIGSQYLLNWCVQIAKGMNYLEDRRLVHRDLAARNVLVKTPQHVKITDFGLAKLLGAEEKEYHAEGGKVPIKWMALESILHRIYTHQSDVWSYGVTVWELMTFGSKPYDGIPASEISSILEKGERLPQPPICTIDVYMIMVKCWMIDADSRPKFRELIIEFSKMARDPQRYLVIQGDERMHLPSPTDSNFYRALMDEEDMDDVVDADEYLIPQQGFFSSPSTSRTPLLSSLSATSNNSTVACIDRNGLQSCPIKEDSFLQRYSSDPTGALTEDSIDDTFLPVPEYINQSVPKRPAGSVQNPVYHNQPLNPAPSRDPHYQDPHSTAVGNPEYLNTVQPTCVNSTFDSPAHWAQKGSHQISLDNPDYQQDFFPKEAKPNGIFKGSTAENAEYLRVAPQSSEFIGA
UniProt P00533, with tags, fused parts or gaps DUP771-773: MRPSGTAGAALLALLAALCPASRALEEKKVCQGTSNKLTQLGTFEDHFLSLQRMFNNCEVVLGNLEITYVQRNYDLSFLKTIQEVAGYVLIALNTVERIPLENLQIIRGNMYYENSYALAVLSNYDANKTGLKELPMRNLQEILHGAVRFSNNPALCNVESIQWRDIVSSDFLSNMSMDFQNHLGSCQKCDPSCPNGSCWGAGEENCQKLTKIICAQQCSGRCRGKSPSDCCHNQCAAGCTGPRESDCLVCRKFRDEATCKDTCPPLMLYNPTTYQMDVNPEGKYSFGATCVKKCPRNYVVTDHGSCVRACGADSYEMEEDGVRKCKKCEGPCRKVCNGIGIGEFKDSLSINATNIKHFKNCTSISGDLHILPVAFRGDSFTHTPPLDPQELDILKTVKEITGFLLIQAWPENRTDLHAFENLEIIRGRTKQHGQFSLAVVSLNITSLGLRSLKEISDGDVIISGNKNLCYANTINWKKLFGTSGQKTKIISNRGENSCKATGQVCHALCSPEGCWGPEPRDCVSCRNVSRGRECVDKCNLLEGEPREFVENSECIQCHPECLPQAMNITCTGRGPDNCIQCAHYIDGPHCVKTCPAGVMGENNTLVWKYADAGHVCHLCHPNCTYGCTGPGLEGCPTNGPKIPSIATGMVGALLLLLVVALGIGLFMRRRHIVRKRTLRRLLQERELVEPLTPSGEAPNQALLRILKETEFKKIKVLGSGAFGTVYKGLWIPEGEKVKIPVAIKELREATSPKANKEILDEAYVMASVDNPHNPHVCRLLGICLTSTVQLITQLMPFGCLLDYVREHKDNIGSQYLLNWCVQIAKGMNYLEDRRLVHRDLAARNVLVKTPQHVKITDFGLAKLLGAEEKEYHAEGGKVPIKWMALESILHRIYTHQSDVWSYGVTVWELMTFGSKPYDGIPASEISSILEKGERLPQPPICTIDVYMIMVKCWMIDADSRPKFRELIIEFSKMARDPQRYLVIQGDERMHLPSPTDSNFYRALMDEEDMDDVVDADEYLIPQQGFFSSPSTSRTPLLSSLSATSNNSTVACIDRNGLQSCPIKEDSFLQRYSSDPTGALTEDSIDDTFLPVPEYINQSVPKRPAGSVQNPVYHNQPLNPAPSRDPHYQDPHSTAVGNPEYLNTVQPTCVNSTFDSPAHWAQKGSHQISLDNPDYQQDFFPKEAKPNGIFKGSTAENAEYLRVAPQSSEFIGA
UniProt P04626, with tags, fused parts or gaps DUP772-775: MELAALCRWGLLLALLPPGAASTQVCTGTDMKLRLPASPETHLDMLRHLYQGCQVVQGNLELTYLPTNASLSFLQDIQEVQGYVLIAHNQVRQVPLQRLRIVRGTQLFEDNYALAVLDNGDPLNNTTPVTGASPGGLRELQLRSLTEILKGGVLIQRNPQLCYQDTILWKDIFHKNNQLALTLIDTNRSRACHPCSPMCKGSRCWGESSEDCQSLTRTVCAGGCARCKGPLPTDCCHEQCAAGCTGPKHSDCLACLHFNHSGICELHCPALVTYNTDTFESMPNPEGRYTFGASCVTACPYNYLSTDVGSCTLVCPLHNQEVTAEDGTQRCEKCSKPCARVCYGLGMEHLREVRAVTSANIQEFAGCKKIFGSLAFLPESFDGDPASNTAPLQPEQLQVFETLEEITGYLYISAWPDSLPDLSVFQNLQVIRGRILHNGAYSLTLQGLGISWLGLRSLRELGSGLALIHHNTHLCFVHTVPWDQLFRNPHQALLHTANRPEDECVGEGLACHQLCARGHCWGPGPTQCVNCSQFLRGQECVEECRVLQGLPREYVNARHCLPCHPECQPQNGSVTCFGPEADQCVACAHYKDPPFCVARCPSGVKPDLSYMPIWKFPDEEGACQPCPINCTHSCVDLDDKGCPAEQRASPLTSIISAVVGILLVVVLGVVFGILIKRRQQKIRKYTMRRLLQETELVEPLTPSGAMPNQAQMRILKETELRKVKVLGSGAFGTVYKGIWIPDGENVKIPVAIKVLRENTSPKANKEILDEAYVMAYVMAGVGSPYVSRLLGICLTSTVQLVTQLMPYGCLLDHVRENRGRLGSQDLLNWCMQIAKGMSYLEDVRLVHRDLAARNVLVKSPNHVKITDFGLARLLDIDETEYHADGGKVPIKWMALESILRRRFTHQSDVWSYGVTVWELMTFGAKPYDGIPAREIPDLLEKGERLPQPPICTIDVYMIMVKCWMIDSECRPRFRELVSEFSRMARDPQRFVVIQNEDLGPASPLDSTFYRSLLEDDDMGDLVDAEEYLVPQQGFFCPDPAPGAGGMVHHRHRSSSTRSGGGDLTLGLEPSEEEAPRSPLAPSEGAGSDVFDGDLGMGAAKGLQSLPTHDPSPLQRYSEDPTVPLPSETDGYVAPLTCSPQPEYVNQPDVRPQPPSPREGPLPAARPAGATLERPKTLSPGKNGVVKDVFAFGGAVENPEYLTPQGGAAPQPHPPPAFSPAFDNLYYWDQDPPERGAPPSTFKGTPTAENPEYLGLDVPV

The results in this text go back to patent US12686673B2 (Blueprint Medicines Corporation, priority 2020, dated 2026).

Common to all, as to format: cell-based
In experiment [1] the target is EGFR (H773insNPH) expressing Ba/F3 stable cell line (Homo sapiens, UniProt P00533, DUP771-773, cells depend on it). Put plainly: Cellular proliferation (Alamar Blue) assay, EGFR H773insNPH Ba/F3. To be noted: read-out: NPH IC50, 72 hr, tested form: TFA. For orientation: The colour change of resazurin is a common sign of viable cells or microbes.
Experiment [2] has as its target EGFR(D770_N771insSVD) expressing Ba/F3 stable cell line (Homo sapiens, UniProt P00533, DUP768-770, cells depend on it). The experiment can be described thus: Cellular proliferation (Alamar Blue) assay, EGFR D770_N771insSVD Ba/F3. To be noted: read-out: D770 IC50, 72 hr, tested form: TFA.
Experiment [3] has as its target EGFR (A767_dupASV) expressing Ba/F3 stable cell line (Homo sapiens, UniProt P00533, DUP767-769, cells depend on it). Put plainly: Cellular proliferation (Alamar Blue) assay, EGFR A767_dupASV Ba/F3. As to conditions: read-out: A767 IC50, 72 hr, tested form: TFA.
The next experiment relates to A431 cells. Put plainly: Cellular proliferation (Alamar Blue) assay, A431. To be noted: read-out: A431 IC50, 72 hr, tested form: TFA.
Experiment [4] concerns the target HER2 (A775_G776insYVMA) expressing Ba/F3 stable cell line (Homo sapiens, UniProt P04626, DUP772-775, cells depend on it). Put plainly: Cellular proliferation (Alamar Blue) assay, HER2 A775_G776insYVMA Ba/F3. As to conditions: read-out: YVMA IC50, 72 hr, tested form: TFA.

With `C=CC(=O)Nc1ccc(F)c(Nc2nc(Nc3cnn(CCCN(C)C)c3)ncc2-c2ccc(C(F)(F)F)cc2)c1`, the GI50 is 131 nM in experiment [1], 185 nM in experiment [2], 335 nM in experiment [3] and 233 nM in experiment [4]. Also, the IC50 (commonly the concentration that gives 50% inhibition) with A431 cells is 115 nM.
